# Legend:
# [1] = test system: HUVECs (human umbilical vein endothelial cells); assay: MTS assay (CellTiter 96 AQueous One Solution Cell Proliferation Assay), cytotoxicity according to epinephrine concentration; details: for viability of HUVECs: MTS
# Procedure: Cytotoxicity against HUVECs (human umbilical vein endothelial cells) according to the concentration of epinephrine was measured using a CellTiter 96 AQueous One Solution Cell Proliferation Assay. HUVEC cells were seeded (seeding) in a 96-well plate at a density of 5×10^3 cells/well and cultured for 24 hours. Thereafter, the cells were cultured with DMEM medium containing various concentrations of epinephrine for 24 hours. The cells were then washed twice with PBS, and 100 ? of fresh growth DMEM medium was added, followed by further incubation for 48 hours. After replacing the medium with 100 ? of fresh growth DMEM medium, 20 ? of 3-(4,5-dimethylthiazol-2-yl)-5-(3-carboxymethoxyphenyl)-2-(4-sulfophenyl)-2H-tetrazolium (MTS) was added. After an additional 2 hours of incubation, absorbance was measured at 490 nm using a BIO-RAD Model 680 microplate reader (Spark, TECAN, CA, USA).
# [2] = test system: FAS, cleaved caspase 3, and cleaved caspase 9 in HUVECs; assay: Western blot of apoptosis markers in HUVECs; details: FIGS. 3a and 3b
# Procedure: Western blot analysis was performed to confirm the expression of FAS, cleaved caspase-3, and cleaved caspase-9, which are activated during epinephrine-induced apoptosis of HUVECs.
# HUVEC cells cultured in culture dishes were lysed with a buffer containing 50 mM Tris (pH 8.0), 150 mM NaCl, 1% Nonidet p-40, 0.5% sodium deoxycholate (SDC), 0.1% sodium dodecyl sulfate (SDS), 1× protease inhibitor cocktail. Thereafter, the lysate was cooled on ice for 30 minutes and centrifuged at 14,000 g for 10 minutes, and the supernatant was separated. Quantification was performed using a bicinchoninic acid protein assay kit (Pierce Chemical, Rockford, IL, USA), and 30 µg of the protein solution was electrophoresed on a 10% SDS-polyacrylamide gel and then transferred to a nitrocellulose membrane. After the electrophoresed membrane was reacted with blocking milk for 1 hour, primary antibodies against cleaved caspase 3, cleaved caspase 9, and FAS were reacted at room temperature for 1 hour. The membrane was washed three times at 15-minute intervals with Tris buffer containing 0.1% Tween 20, and then reacted with secondary antibodies against the primary antibodies at room temperature for 1 hour, followed by detection using a chemiluminescent reagent (Amersham Life Science, Arlington Heights, IL, USA).
# A protein extracted from HUVECs was used as a positive control. The expression results of FAS, cleaved caspase 3, and cleaved caspase 9 in HUVECs according to the concentration of epinephrine are shown in FIG. 3b.
# [3] = test system: HUVECs; assay: DNA laddering by gel electrophoresis; details: as the concentration of epinephrine increased, FIG. 4
# Excerpt: The characteristic DNA laddering observed during the electrophoresis procedure of Example 2 was confirmed, and the results are shown in FIG. 4. It can be seen that DNA fragmentation occurred as apoptosis of HUVECs was induced by epinephrine.
# [4] = test system: HUVECs; assay: Apoptosis detection by confocal fluorescence microscopy (Apopxin/CytoCalcein); details: epinephrine 0 to 200 µM for 24 hours, FIGS. 5a to 5e
# Procedure: Using an apoptosis detection kit (blue, green) (ab176749), apoptotic cells and healthy cells can be simultaneously monitored. […] Healthy cells can be identified using CytoCalcein Violet 450 (Ex/Em = 405/450 nm), which is a dye for labeling the cytoplasm of living cells.
# Vascular endothelial cells were cultured in a slide culture chamber, and epinephrine was administered to 5×10^4 cells at various concentrations (0 to 200 µM) for 24 hours. Thereafter, the cells were washed one to two times by pipetting 100 µL of assay buffer up and down. The cells were then incubated with 200 µL of assay buffer containing Apopxin/CytoCalcein at room temperature for 30 to 60 minutes. After washing the cells twice with 100 µL of assay buffer, the buffer was replaced with 100 µL of fresh assay buffer, and the cells were transferred to the stage of a confocal microscope. After tilting the halogen lamp column backward and placing a slide on the stage, the analysis software was executed, and imaging parameters were set in the Acquire tab to XYZ mode, 1024×1024 pixels, 600 Hz, Zoom 1×, average 4, accumulation 1, and rotation 0. Thereafter, a sample was placed on the microscope and focused using fluorescence. […] After checking the image while increasing the gain and intensity values, the final focal position was readjusted by turning the dial (Z position), and the image was captured, stored, and analyzed.
# [5] = In vivo experiment 2: body weight decrease or death in xenografted mice; details: 5 mg of pH 8.4 5-FU, 26 mice
# Excerpt: The animals used in the experiment were thirty-eight 5-week-old male nude mice (Crj: BALB/c-nu/nu mice, male) produced by Orient, each having an average body weight of approximately 30 g. The mice were used after a one-week acclimation period at the research institute. Human gastric cancer cells (5×10^6 cells/100 ? (PBS)) were implanted into the dorsal subcutaneous fat layer of each nude mouse. The size of the tumors was periodically measured, and when the tumor diameter reached 1 cm, a drug administration experiment was conducted.
compound,measurement,setting,value
CNC[C@H](O)c1ccc(O)c(O)c1,viability of HUVECs,"[1]; 100µm of 5-FU co-administered, various concentrations of epinephrine, FIG. 2b",decreased in proportion to the concentration of epinephrine
same,effect on 5-FU-induced cell death,"[1]; HUVECs, 100µm of 5-FU co-administered",synergistic effect
same,viability of HUVECs,"[1]; various concentrations of epinephrine for 24 hours, FIG. 2a",decreased in proportion to the concentration of epinephrine
same,expression level of FAS,[2],increased as the concentration of epinephrine increased
same,expression level of cleaved caspase 3,[2],increased as the concentration of epinephrine increased
same,expression level of cleaved caspase 9,[2],increased as the concentration of epinephrine increased
same,DNA fragmentation due to apoptosis of HUVECs,[3],increased
same,number of apoptotic cells,[4],increased in proportion to the concentration of epinephrine
same,number of healthy cells,[4],decreased
O=c1[nH]cc(F)c(=O)[nH]1,mice that exhibited a rapid decrease in body weight or died (number),[5],six
same,mice that exhibited a rapid decrease in body weight or died (share),[5],about 23.1%

# Reference: EP4834338A1, “PHARMACEUTICAL COMPOSITION FOR DISRUPTION OF TUMOR BLOOD VESSELS” (dated 2026)
